According to US20040024027A1 (priority 2000, published 2004):

Settings: 40° C./75% Relative Humidity (RH), open exposure, 1 month, glass bottle

**Q.** Which results are given for `CN(CCOc1ccc(CC2SC(=O)NC2=O)cc1)c1ccccn1.I.O` (stereo not shown) [Hydriodide Hydrate, 5-[4-[2-(N-Methyl-N-(2-pyridyl)amino)ethoxy]benzyl]thiazolidine-2,4-dione hydriodide hydrate]?
**A.** Solid state stability: HPLC assay: 97 % initial; Solid state stability: degradation: No significant degradation observed

**Q.** With `CN(CCOc1ccc(CC2SC(=O)NC2=O)cc1)c1ccccn1.I` (stereo not shown) [Hydriodide, 5-[4-[2-(N-Methyl-N-(2-pyridyl)amino)ethoxy]benzyl]thiazolidine-2,4-dione Hydriodide] as the compound, how does the “Solid state stability: HPLC assay” value read?
**A.** 97 % initial

**Q.** And the “Solid state stability: degradation” value?
**A.** No significant degradation observed
